This note sets out measurements from US9162979B2, “1,5-Diary1-2-alkylpyrrole-3-substituted nitro esters, selective COX-2 inhibitors and nitric oxide donors” (ROTTAPHARM BIOTECH S.R.L., priority 2010, dated 2015).

The chains behind the UniProt entries cited, without tags or fusion partners. Residues count along the entry.
UniProt Q05769, 18-604: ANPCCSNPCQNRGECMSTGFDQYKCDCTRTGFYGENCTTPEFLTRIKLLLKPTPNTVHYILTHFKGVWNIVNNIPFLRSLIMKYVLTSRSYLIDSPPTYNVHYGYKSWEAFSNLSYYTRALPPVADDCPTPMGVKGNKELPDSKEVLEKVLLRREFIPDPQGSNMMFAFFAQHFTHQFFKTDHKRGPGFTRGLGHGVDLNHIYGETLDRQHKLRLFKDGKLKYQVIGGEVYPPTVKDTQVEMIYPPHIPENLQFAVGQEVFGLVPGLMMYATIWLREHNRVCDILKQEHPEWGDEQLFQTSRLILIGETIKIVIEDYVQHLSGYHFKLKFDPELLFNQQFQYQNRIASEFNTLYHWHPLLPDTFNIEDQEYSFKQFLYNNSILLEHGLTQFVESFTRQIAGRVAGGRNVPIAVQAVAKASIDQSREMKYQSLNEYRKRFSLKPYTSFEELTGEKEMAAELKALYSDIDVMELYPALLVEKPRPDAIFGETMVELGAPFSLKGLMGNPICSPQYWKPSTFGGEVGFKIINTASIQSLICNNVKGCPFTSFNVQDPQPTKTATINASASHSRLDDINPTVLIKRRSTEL

For this assay, the target named is COX-2 (Mus musculus (Mouse), UniProt Q05769). The assay can be described thus: Evaluation of COX-2 activity: PGE2 production in LPS-stimulated J774 cells. In kind it is cell-based, murine. The note with it: J774 cells stimulated 24 hours with LPS 10 μg/mL; PGE2 by radio-immunological assay; read-out: Cyclooxygenase inhibition COX-2 IC50. The procedure: The murine monocyte/macrophage cell line J774 is grown in Dulbecco's modified Eagle's medium (DMEM), enriched with glutamine (2 mM), HEPES (25 mM), penicillin (100 u/mL), streptomycin (100 μg/mL), 10% of fetal bovine serum (FBS) and 1.2% of sodium pyruvate. The cells are distributed in 24-well plates at a density of 2.5×10^5 cells/mL or in culture dishes with a diameter of 10 cm (1×10^7 cells/10 mL/dish) and kept for 2 hours at 37° C. in a CO2 (5%)/O2 (95%) atmosphere. Just before the experiments, the culture medium is replaced with fresh medium without FBS to avoid interference during the radio-immunological phase and the cells are stimulated as described below.
The cells are stimulated, for 24 hours, with lipopolysaccharide of E. coli (10 μg/mL), to induce production of COX-2, in the absence and/or in the presence of the test compounds. The supernatants are collected for evaluating, by means of radio-immunological assays, the amount of PGE2 produced.
In each group of experiments, wells were used in triplicate for the different treatment conditions. The results are the mean value of 3 experiments and are expressed as percentage inhibition of production of PGE2 of the compounds tested relative to the control. The data were evaluated using the sigmoidal dose-response equation (variable slope) (GraphPad software). […]

Consider `Cc1c(CCOCCO)cc(-c2ccc(S(C)(=O)=O)cc2)n1-c1ccccc1` [Example 36-II, 2-[2-[1-Phenyl-2-methyl-5-(4-methylsulphonylphenyl)-1H-pyrrol-3-yl]ethoxy]ethanol], for which the concentration for half-maximal inhibition (IC50) – broadly, the concentration needed to halve the response being measured – was 27 nM.
Next, `Cc1c(CCOCCO)cc(-c2ccc(S(C)(=O)=O)cc2)n1-c1ccc(F)cc1` [Example 37-II]: 89 nM.
